In US10597366B2 (dated 2020):

System: 786-O-Hif-Luc cells (luciferase gene driven by multiple HIF responsive elements)
Test: Luciferase Assay
Assay type: cell-based
Conditions: 24 h, read-out: Mean Luciferease EC50

Question: With N#Cc1ccc(Oc2cc(F)cc(F)c2)c2c1[C@H](O)C(F)(F)C2 [Compound 67, (S)-7-(3,5-Difluorophenoxy)-2,2-difluoro-3-hydroxy-2,3-dihydro-1H-indene-4-carbonitrile] as the molecule, how does the EC50 read?
Answer: 74 nM
